uPA surface inh: inhibitors of cell surface uPA generation | cell surface uPA generation assay, qHTS | Potency, µM (titrated, usually from 38.3 µM), inactives show at the highest dose activity change, negative = inhibition, most hits filed as inhibitors | hit rate 0.31% among 330,000 | AID 540303; active = well fitted inhibition curve with a large enough effect; inconclusive = small, poorly fitted or top-dose-only effect; inactive = no such curve, though single readings can be large or run the other way; tested in mouse RAW 264.7 cells; note: potency is the fitted concentration of half-maximal effect; % is set by controls: 0 for no effect and ±100 for the full control effect; nearly all actives have a fitted effect of over 55% in size
DT40 TDP1 no CPT: qHTS for Inhibitors of human tyrosyl-DNA phosphodiesterase 1 (TDP1): qHTS in cells in absence of CPT; DT40 Tdp1-/- hTDP1 cells, no CPT, ATP luminescence, 48 h; Potency, µM (series often up to 46.2 µM), for the others: at the top dose activity change, negative = growth inhibition, hits mostly inhibitors; hit rate 15% among 420,000; note: potency is the fitted concentration of half-maximal effect; % is set by controls: 0 for no effect and ±100 for the full control effect; nearly all actives have a fitted effect of over 55% in size
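DT40 Tdp1-/-;hTDP1 cells, no CPT (DMSO vehicle only), 400 cells/well; compounds pin-transferred; ≥48 hr, 37 °C; CellTiter-Glo 30 min RT dark, luminescence read.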
TDP1 block: inhibitors of human tyrosyl-DNA phosphodiesterase TDP1 | Q9NUW8 | recombinant TDP1, AlphaScreen DNA substrate cleavage | Potency, µM (titrated, usually from 130 µM), without a hit: at the highest dose activity change, negative = inhibition, actives largely listed as inhibitors | hit rate 0.28% among 350,000; note: potency is the fitted concentration of half-maximal effect; % is set by controls: 0 for no effect and ±100 for the full control effect; nearly all actives have a fitted effect of over 40% in size
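Tdp1 1 nM final; 15 min RT w/ cpd; substrate 15 nM, 5 min; beads 10 ug/ml, 10 min; AlphaScreen read. Neg ctrl: no enzyme.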
miR-21 FLuc: miR-21 reporter, rising signal. HeLa miR-21 FLuc reporter, luciferase, 48 h. Potency, µM (titrated, usually from 38.3 µM), without a hit: at the top dose reporter change, positive = more light. 340,000 tested, under 10 active. AID 2288; active = well fitted rising curve with a large enough effect; inconclusive = small, poorly fitted or top-dose-only effect; inactive = no such curve, though single readings can be large or run the other way;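 also: % of control where 0% means no effect; miR-21 action dims this reporter so a rising signal means less miR-21 action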
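HeLa miR-21-FLuc reporter line, endogenous miR-21; 2000 cells/well in DMEM/10% FBS; compound titration up to ~40uM final, 48 h, 37 degree Celsius; luciferase detection reagent, 15 min lysis, CCD luminescence.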
TDP1 cell CPT: growth inhibition of DT40 Tdp1-/-;hTDP1 cells with camptothecin (screen for TDP1 inhibitors). hit rate 12% among 420,000. Potency, µM (titrated, usually from 46.2 µM), for the others: at the top dose activity change, negative = growth inhibition, hits mostly inhibitors. AID 686979. chicken DT40 Tdp1-/-;hTDP1 cells + 20 nM CPT, ATP luminescence, 48 h; note: potency is the fitted concentration of half-maximal effect; % is set by controls: 0 for no effect and ±100 for the full control effect; nearly all actives have a fitted effect of over 55% in size
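Chicken DT40 Tdp1-/- cells stably complemented with human TDP1 were seeded at 400 cells/well in medium containing 20 nM camptothecin, exposed to pin-transferred compounds, and grown at 37 °C for at least 48 hr. Viability was read as ATP luminescence.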
* marks the source's active call; other numbers are inactive results; [ ] = another dose, or the depositor's remark. Hits are enriched below; roughly 16% of the tested compounds scored in any of these assays. Unless noted, calls come from the whole dose curve; as a rule, active = well fitted curve in the direction sought with a large enough effect; inconclusive = small, poorly fitted or top-dose-only effect, or another doubt; inactive = no such curve, though single readings can be large; an effect the other way counts as inactive or inconclusive.

`Cn1nccc1C(=O)Nc1ccccc1C(=O)O` gave uPA surface inh 8%, DT40 TDP1 no CPT inconclusive, TDP1 block 0%, miR-21 FLuc -12% and TDP1 cell CPT -23%.
For Cc1ccc(/C=C/C(=O)Nn2cnnc2)cc1 the results were uPA surface inh -2%, DT40 TDP1 no CPT 15µM*, TDP1 block 4%, miR-21 FLuc -2% and TDP1 cell CPT inconclusive.
CC(C)c1ccc(/C=C/C(=O)Nn2cnnc2)cc1 was read as DT40 TDP1 no CPT 1% and TDP1 cell CPT 2%.
For CN=C1S/C(=C\c2ccc(N3CCOCC3)c(F)c2)C(=O)N1C the results were uPA surface inh -3%, DT40 TDP1 no CPT 15µM*, TDP1 block 2%, miR-21 FLuc -17% and TDP1 cell CPT inconclusive.
CC(=O)Nc1ccc(/C=C/c2nc3ccccc3[nH]c2=O)cc1 was read as uPA surface inh 1%, DT40 TDP1 no CPT 2%, TDP1 block 2%, miR-21 FLuc -49% and TDP1 cell CPT 2%.
For O=C(NCc1nc2ccccc2[nH]1)c1ccco1 the results were uPA surface inh 5%, DT40 TDP1 no CPT 9%, TDP1 block 4%, miR-21 FLuc -22% and TDP1 cell CPT 2%.
Screening O=C(/C(=C/c1ccc(Cl)cc1)c1nc2ccccc2[nH]1)c1ccccc1 returned uPA surface inh -13%, DT40 TDP1 no CPT 7.3µM*, TDP1 block 6%, miR-21 FLuc -41% and TDP1 cell CPT 13µM*.
For O=c1[nH]c2ccccc2nc1/C=C/c1ccc(Cl)cc1 the results were uPA surface inh -3%, DT40 TDP1 no CPT 23µM*, TDP1 block 5%, miR-21 FLuc -41% and TDP1 cell CPT 13µM*.
Screening C(=C\c1ccco1)/c1nc2ccccc2[nH]1 returned uPA surface inh 7.1µM*, DT40 TDP1 no CPT 23µM*, TDP1 block 2%, miR-21 FLuc -10% and TDP1 cell CPT inconclusive.
`C(=C\c1nc2ccccc2[nH]1)/c1ccccc1` gave uPA surface inh inconclusive, DT40 TDP1 no CPT 16µM*, TDP1 block 5%, miR-21 FLuc 20% and TDP1 cell CPT 15µM*.

A run of entries taken from the entries so far:
`Cn1nccc1C(=O)Nc1ccccc1C(=O)O` gave uPA surface inh 8%, DT40 TDP1 no CPT inconclusive, TDP1 block 0%, miR-21 FLuc -12% and TDP1 cell CPT -23%.
For Cc1ccc(/C=C/C(=O)Nn2cnnc2)cc1 the results were uPA surface inh -2%, DT40 TDP1 no CPT 15µM*, TDP1 block 4%, miR-21 FLuc -2% and TDP1 cell CPT inconclusive.
CC(C)c1ccc(/C=C/C(=O)Nn2cnnc2)cc1 was read as DT40 TDP1 no CPT 1% and TDP1 cell CPT 2%.
For CN=C1S/C(=C\c2ccc(N3CCOCC3)c(F)c2)C(=O)N1C the results were uPA surface inh -3%, DT40 TDP1 no CPT 15µM*, TDP1 block 2%, miR-21 FLuc -17% and TDP1 cell CPT inconclusive.

(further entries)
For Cc1ccc(-c2nc3cc(NC(=O)Cc4ccc(Cl)cc4)ccc3o2)cc1 the results were DT40 TDP1 no CPT -3%, TDP1 block -9%[12.3 µM], miR-21 FLuc -19% and TDP1 cell CPT -21%.
Screening O=C1OC2C[C@H]1[C@@H]1C(=O)N(Cc3ccccc3)CCC1C2I (stereo partly specified) returned TDP1 block 12%.
Screening CCN1C/C(=C/c2ccc(OC)c(O)c2)C(=O)/C(=C/c2ccc(OC)c(O)c2)C1 returned uPA surface inh inconclusive, DT40 TDP1 no CPT 12µM*, TDP1 block 8%, miR-21 FLuc inconclusive and TDP1 cell CPT 13µM*.
`COc1ccc(/C=C2\CN(Cc3ccccc3)C/C(=C\c3ccc(OC)c(O)c3)C2=O)cc1O` gave uPA surface inh -18%, DT40 TDP1 no CPT 2.1µM*, TDP1 block 0%, miR-21 FLuc inconclusive and TDP1 cell CPT 5.2µM*.
Screening COc1ccc(C=C2C(=O)c3ccccc3C2=O)cc1O returned uPA surface inh -1%, DT40 TDP1 no CPT 0%, TDP1 block 5%, miR-21 FLuc -13% and TDP1 cell CPT 0%.
Screening Cc1nc(C)n(CCNS(=O)(=O)c2ccccc2)n1 returned uPA surface inh -4%, DT40 TDP1 no CPT 14%, TDP1 block 2%, miR-21 FLuc -3% and TDP1 cell CPT 5%.
For O=C(Nc1cccc([N+](=O)[O-])c1)c1ccc2c(c1)OCCO2 the results were uPA surface inh -5%, DT40 TDP1 no CPT inconclusive, TDP1 block 5%, miR-21 FLuc -30% and TDP1 cell CPT inconclusive.
Screening O=C(NCCCN1CCCC1=O)c1cc(S(=O)(=O)N2CCOCC2)c(Cl)cc1Cl returned uPA surface inh -2%, DT40 TDP1 no CPT -15%, TDP1 block -18% and TDP1 cell CPT 12%.
`O=C(Nc1ccccc1F)c1nc(S(=O)(=O)Cc2ccccc2F)ncc1Cl` gave DT40 TDP1 no CPT 0.92µM*, TDP1 block -2%, miR-21 FLuc inconclusive and TDP1 cell CPT 1.3µM*.
For CC(=O)Nc1ccc(NC(=O)c2nc(SCc3ccccc3F)ncc2Cl)cc1 the results were DT40 TDP1 no CPT -8% and TDP1 cell CPT -22%.
COC(=O)c1ccccc1NC(=O)c1nc(S(=O)(=O)Cc2ccccc2F)ncc1Cl was read as DT40 TDP1 no CPT inconclusive, TDP1 block 5%, miR-21 FLuc 0% and TDP1 cell CPT -11%.
`CCOc1ccccc1NC(=O)c1nc(S(=O)(=O)Cc2ccccc2F)ncc1Cl` gave DT40 TDP1 no CPT inconclusive and TDP1 cell CPT 0.56µM*.
`O=C(Nc1ccc2ccccc2c1)c1nc(S(=O)(=O)Cc2ccccc2F)ncc1Cl` gave DT40 TDP1 no CPT 1.3µM* and TDP1 cell CPT 0.71µM*.
For Cc1cccc(C)c1NC(=O)c1nc(S(=O)(=O)Cc2ccccc2F)ncc1Cl the results were DT40 TDP1 no CPT 5µM* and TDP1 cell CPT 1.3µM*.
`COC(=O)c1ccc(NC(=O)c2nc(SCc3ccccc3F)ncc2Cl)cc1` gave DT40 TDP1 no CPT 18µM* and TDP1 cell CPT inconclusive.
`Oc1ccc(Oc2ccc3c(C(F)(F)F)cc(C(F)(F)F)nc3n2)cc1` gave uPA surface inh -1%, DT40 TDP1 no CPT 18µM*, TDP1 block 3%, miR-21 FLuc 27% and TDP1 cell CPT 15µM*.
Screening Cc1ccc(NC(=O)Cn2c(=O)n(Cc3ccco3)c(=O)c3sc4ccccc4c32)c(C)c1 returned DT40 TDP1 no CPT -18%, TDP1 block 6%, miR-21 FLuc 8% and TDP1 cell CPT inconclusive.
`O=c1c2sc3ccccc3c2n(Cc2ccccc2)c(=O)n1Cc1ccccc1` gave DT40 TDP1 no CPT -22%, TDP1 block 4%, miR-21 FLuc -8% and TDP1 cell CPT -2%.
Screening O=C(Cn1c(=O)n(Cc2ccco2)c(=O)c2sc3ccccc3c21)Nc1ccc(F)cc1F returned DT40 TDP1 no CPT 10µM*, TDP1 block -1%, miR-21 FLuc 1% and TDP1 cell CPT inconclusive.
For O=c1c2sc3ccccc3c2n(Cc2cccc(Cl)c2)c(=O)n1Cc1ccc(F)cc1 the results were DT40 TDP1 no CPT 6.5µM*, TDP1 block 6%, miR-21 FLuc -4% and TDP1 cell CPT 10µM*.
`O=c1c2sc3ccccc3c2n(Cc2ccccc2F)c(=O)n1-c1ccccc1Cl` gave DT40 TDP1 no CPT 9.2µM*, TDP1 block -1%, miR-21 FLuc 2% and TDP1 cell CPT 21µM*.
Screening O=c1c2sc3ccccc3c2n(Cc2cccc(Cl)c2)c(=O)n1Cc1ccccc1 returned DT40 TDP1 no CPT inconclusive, TDP1 block 3%, miR-21 FLuc -2% and TDP1 cell CPT 13µM*.
